ChEMBL document CHEMBL2331279, “Rational design and synthesis of 4-substituted 2-pyridin-2-ylamides with inhibitory effects on SH2 domain-containing inositol 5'-phosphatase 2 (SHIP2)” (Eur J Med Chem, 2013)

Target: T1, Phosphatidylinositol 3,4,5-trisphosphate 5-phosphatase 2 (Homo sapiens, UniProt O15357)
T1 sequence (O15357 whole entry): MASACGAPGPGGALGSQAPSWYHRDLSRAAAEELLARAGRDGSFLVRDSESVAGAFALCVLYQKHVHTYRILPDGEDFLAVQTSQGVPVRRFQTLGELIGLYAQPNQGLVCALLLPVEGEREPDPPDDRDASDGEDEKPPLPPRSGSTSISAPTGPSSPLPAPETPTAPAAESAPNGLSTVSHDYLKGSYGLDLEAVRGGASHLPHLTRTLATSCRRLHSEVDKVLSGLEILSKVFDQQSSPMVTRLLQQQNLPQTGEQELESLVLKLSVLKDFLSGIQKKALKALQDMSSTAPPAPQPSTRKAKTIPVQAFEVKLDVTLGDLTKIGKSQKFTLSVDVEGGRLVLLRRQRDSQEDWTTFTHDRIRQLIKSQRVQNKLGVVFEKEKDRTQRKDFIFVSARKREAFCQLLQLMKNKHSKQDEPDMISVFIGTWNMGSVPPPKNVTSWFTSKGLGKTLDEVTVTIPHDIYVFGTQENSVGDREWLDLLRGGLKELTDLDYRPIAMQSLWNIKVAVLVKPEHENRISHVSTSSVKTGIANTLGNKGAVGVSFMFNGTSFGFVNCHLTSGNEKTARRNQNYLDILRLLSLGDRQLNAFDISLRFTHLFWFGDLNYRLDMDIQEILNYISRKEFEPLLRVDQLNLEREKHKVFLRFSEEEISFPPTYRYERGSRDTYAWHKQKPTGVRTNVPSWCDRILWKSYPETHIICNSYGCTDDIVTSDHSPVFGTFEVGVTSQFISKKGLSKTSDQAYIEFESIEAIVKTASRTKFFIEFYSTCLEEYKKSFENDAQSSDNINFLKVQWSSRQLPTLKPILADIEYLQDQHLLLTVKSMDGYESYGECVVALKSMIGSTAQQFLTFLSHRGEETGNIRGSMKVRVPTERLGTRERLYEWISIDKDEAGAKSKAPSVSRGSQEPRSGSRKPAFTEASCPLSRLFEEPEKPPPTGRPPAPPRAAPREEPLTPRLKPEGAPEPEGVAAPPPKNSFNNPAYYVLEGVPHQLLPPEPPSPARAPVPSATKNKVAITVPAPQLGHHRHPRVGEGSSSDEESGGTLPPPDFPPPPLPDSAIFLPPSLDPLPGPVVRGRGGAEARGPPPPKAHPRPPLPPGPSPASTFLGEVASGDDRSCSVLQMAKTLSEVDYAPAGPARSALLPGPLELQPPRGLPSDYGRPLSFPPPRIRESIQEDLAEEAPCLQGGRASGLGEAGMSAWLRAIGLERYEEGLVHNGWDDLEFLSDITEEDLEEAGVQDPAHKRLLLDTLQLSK
Assay: Inhibition of SHIP2 (unknown origin)

- IC50: 0.62 µM
SMILES: C[C@H](NC(=O)c1sccc1OCc1ccc(Cl)cc1)c1ccccc1
